# Literature values in paper PMC12080252, “Daphnia magna as an Alternative Model for (Simultaneous) Bioaccumulation and Chronic Toxicity Assessment—Controlled Exposure Study Indicates High Hazard of Heterocyclic PAHs” (Environmental Science & Technology, 2025).
# Test system: H. azteca
# Conditions: in vivo; cited from earlier work
smiles,measurement,value
O=C(O)Cc1ccccc1Nc1c(Cl)cccc1Cl [diclofenac],half-life,16.8 min
